{
  "source": "ChEMBL document CHEMBL2202967",
  "about": "“Synthesis, characterization and biological evaluation of ureidofibrate-like derivatives endowed with peroxisome proliferator-activated receptor activity” (J Med Chem, 2012)",
  "note": "Calls of active or inactive are those of the source. The calls are words filed in the database; no cut-off is given here.",
  "data": [
    {"target": "T1, Peroxisome proliferator-activated receptor alpha (Homo sapiens) (UniProt Q07869)", "T1 sequence (whole entry)": "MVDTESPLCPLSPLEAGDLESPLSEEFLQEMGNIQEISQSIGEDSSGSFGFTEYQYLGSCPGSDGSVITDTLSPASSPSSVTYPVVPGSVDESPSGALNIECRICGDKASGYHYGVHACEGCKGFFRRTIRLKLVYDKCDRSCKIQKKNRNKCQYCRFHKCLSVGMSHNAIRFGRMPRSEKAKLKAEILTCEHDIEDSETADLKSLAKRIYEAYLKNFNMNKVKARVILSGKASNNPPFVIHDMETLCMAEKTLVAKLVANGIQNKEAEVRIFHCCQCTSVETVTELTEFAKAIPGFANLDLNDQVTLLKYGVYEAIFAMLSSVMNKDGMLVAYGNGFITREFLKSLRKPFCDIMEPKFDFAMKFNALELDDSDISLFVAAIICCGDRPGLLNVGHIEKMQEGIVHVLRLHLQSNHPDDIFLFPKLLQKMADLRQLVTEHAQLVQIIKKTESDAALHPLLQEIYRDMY", "assay": "Agonist activity at human GAL4-fused PPARalpha ligand binding domain expressed in HepG2 cells after 20 hrs by luciferase reporter gene transactivation assay relative to WY14643", "type": "cell-based", "values": [
      {"smiles": "CCCCCCCN(CCc1ccc(O[C@@H](Cc2ccccc2)C(=O)O)cc1)c1nc2ccccc2o1.NC1CCCCC1", "Emax": "inactive"},
      {"smiles": "CCCc1c(OCCCOc2ccc(OCC(=O)O)cc2)ccc(C(C)=O)c1O", "Emax": "inactive"},
      {"smiles": "CCCCCCCN(CCc1ccc(O[C@H](Cc2ccccc2)C(=O)O)cc1)c1nc2ccccc2o1.NC1CCCCC1", "Emax": "26%"}
    ]}
  ]
}
